Amino acid sequences for entries named in this document (tags omitted). Residues count along the entry.
UniProt Q16552, 24-155: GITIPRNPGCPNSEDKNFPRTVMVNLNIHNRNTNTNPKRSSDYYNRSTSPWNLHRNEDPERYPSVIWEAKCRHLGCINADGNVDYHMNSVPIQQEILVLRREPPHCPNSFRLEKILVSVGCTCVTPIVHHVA

In article PMC5766103 (PLoS ONE, 2018):

Tests used:
[1] = target: T1, IL-17A (Homo sapiens, UniProt Q16552); assay: Surface plasmon resonance (BIAcore T200) binding of peptides to captured Avi-tagged IL-17A; conditions: for SPR ka1 / SPR kd1: 8°C, 50 μl/min, 10 mM HEPES pH 7.5, 150 mM NaCl, 0.005% P20, 3% DMSO, global fit, 1:1 binding model
T1 construct: His-tag; Flag-tag; made in house; host or cells: Sf9 insect cells (baculovirus)

[2] = tested on: IL-17RA:IL-17A; assay: ELISA-based binding assay IL-17RA:IL-17A; format: biochemical, human; conditions: for inhibition of human IL-17A binding to IL-17RA: peptide 10 μM, biotinylated IL-17A 250 ng/mL pre-incubated 1 h with peptide, 30 min on IL-17RA-Fc plate, mean of duplicates
[3] = tested on: human IL-17A; assay: Cell-based neutralization assay: IL-17A-induced CXCL1/GROα in HT-29 cells; conditions: 60 ng/mL human IL-17A, peptide 10 μM, ~48 h, CXCL1/GROα ELISA, mean of duplicate treatments

SMILES | SPR ka1 [1] [M⁻¹ s⁻¹] | SPR kd1 [1] [s⁻¹] | inhibition of human IL-17A binding to IL-17RA (in words) ([2]; dose range 0.128 nM to 10,000 nM) | fold higher affinity than parent peptide after affinity maturation ([1]; SPR affinity versus parent peptide) [fold] | inhibition of IL-17A-induced CXCL1 production [3] [%] | inhibition of human IL-17A binding to IL-17RA [2] [%] | fold tighter KD than parent peptide 18–1 ([1]; SPR KD of 585–1 versus 18–1) [fold] | fold faster kon than 18–1 peptide ([1]; SPR kon of 585–1 versus 18–1) [fold]
CSCC[C@@H]1NC(=O)[C@H](CC(=O)O)NC(=O)[C@H](Cc2ccc(O)cc2)NC(=O)[C@H](CCC(=O)O)NC(=O)[C@H](CC(C)C)NC(=O)[C@H](CCCNC(=N)N)NC(=O)[C@@H]2CCCN2C(=O)[C@@H](N)CSSC[C@@H](C(=O)N[C@@H](CC(C)C)C(=O)O)NC(=O)[C@H](Cc2c[nH]cn2)NC(=O)[C@H](CC(C)C)NC(=O)[C@H](C)NC(=O)CNC(=O)[C@H](Cc2ccccc2)NC1=O [18–927] | 7040 | 0.0286 | no inhibition | – | – | – | – | –
CC(C)C[C@H](NC(=O)[C@@H](N)CC(=O)O)C(=O)N[C@@H](CO)C(=O)N[C@@H](C)C(=O)N[C@H](C(=O)N[C@H]1CSSC[C@@H](C(=O)N[C@@H](Cc2c[nH]cn2)C(=O)O)NC(=O)[C@H](CCC(=O)O)NC(=O)[C@@H]2CCCN2C(=O)[C@H](CC(=O)O)NC(=O)[C@H](Cc2c[nH]c3ccccc23)NC(=O)[C@@H]2CCCN2C(=O)[C@H](Cc2ccccc2)NC(=O)[C@H](C)NC(=O)[C@H](Cc2c[nH]c3ccccc23)NC1=O)C(C)C [585–870] | 224000 | 0.00658 | – | 5 | 76.6 | 82.5 | – | –
CSCC[C@H](NC(=O)[C@H](Cc1c[nH]cn1)NC(=O)[C@@H]1CSSC[C@H](NC(=O)[C@@H](NC(=O)[C@H](C)NC(=O)[C@H](CO)NC(=O)[C@H](CO)NC(=O)[C@@H](N)CC(=O)O)C(C)C)C(=O)N[C@@H](Cc2c[nH]c3ccccc23)C(=O)N[C@@H](C)C(=O)N[C@@H](Cc2ccccc2)C(=O)N2CCC[C@H]2C(=O)N[C@@H](Cc2c[nH]cn2)C(=O)N[C@@H](Cc2c[nH]cn2)C(=O)N2CCC[C@H]2C(=O)N[C@@H](CC(C)C)C(=O)N1)C(=O)N[C@@H](CCCCN)C(=O)N[C@@H](C)C(=O)N[C@H](C(=O)O)[C@@H](C)O [585–1] | 89900 | 0.01315 | – | – | 42.5 | 44.6 | 84 | 39
